Target: T1, Dihydrofolate reductase (Homo sapiens, UniProt P00374)
T1 sequence (P00374 whole entry): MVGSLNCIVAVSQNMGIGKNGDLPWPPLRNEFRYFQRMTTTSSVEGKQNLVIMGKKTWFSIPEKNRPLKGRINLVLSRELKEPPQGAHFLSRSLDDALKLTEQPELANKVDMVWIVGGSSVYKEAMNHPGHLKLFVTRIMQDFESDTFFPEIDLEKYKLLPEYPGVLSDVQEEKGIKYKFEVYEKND
Test: Inhibition of recombinant human dihydrofolate reductase done at 37 degree C in pH 7.4 with compound

Nc1nc2[nH]cc(CCc3ccc(C(=O)N[C@@H](CCC(=O)O)C(=O)O)cc3)c2c(=O)[nH]1 [PEMETREXED] showed a Ki of 7 nM.
